Reference: patent US8153596B2, “Use of SH2 STAT3/STAT1 peptidomimetics as anticancer drugs” (University of South Florida, priority 2006, dated 2012)

By UniProt entry, the sequences of proteins in these tests, tags left out. Residues count along the entry.
UniProt P42224, 2-750 limits assumed: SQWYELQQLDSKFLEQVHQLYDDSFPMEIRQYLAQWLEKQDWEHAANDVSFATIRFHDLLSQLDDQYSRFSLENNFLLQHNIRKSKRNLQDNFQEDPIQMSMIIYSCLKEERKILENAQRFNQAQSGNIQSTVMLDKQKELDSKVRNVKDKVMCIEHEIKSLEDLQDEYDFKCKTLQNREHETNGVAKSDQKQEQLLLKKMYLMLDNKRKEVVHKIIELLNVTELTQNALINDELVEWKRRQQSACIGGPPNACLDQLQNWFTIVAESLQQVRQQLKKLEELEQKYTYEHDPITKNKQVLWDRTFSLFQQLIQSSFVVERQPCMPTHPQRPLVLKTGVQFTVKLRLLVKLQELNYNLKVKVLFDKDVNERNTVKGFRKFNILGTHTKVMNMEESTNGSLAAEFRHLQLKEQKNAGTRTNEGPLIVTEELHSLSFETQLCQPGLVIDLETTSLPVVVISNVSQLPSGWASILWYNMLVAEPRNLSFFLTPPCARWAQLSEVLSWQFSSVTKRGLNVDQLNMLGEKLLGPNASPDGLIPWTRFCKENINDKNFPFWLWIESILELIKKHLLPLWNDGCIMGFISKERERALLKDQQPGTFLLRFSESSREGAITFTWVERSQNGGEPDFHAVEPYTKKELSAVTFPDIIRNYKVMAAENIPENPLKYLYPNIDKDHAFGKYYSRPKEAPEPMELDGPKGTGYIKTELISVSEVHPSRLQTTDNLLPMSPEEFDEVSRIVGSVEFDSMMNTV
UniProt P40763, 2-770 limits assumed: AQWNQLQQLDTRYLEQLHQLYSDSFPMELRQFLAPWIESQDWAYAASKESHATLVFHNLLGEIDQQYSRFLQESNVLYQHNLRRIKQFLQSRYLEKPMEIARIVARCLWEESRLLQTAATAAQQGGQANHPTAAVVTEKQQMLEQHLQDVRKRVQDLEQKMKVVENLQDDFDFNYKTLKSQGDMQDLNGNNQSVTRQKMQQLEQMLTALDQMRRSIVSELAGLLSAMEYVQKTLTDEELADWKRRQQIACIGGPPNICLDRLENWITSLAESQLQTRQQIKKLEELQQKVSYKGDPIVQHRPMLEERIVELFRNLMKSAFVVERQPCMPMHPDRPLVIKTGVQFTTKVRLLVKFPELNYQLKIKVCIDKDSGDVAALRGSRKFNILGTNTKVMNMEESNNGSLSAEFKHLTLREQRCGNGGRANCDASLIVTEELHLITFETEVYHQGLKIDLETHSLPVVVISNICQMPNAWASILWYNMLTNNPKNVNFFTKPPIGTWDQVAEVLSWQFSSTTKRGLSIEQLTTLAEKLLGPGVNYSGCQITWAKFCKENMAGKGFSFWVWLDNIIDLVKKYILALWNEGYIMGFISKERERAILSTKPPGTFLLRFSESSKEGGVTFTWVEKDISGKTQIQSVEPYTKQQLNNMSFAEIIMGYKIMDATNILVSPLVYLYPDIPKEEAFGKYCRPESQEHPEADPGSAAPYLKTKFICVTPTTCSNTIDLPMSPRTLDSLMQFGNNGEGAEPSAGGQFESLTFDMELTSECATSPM

Key:
[1] = target: STAT1:STAT1 (Homo sapiens, UniProt P42224); experiment: EMSA of STAT1:STAT1 dimer DNA binding, nuclear extracts preincubated with peptidomimetic, radiolabeled hSIE probe; format: biochemical; conditions: read-out: STAT1:STAT1 IC50 values, nuclear extracts preincubated 30 min at room temperature, means of three experiments
[2] = target: STAT3:STAT3 (Homo sapiens, UniProt P40763); experiment: EMSA of STAT3:STAT3 dimer DNA binding, nuclear extracts preincubated with peptidomimetic, radiolabeled hSIE probe; format: biochemical; conditions: read-out: STAT3:STAT3 IC50 values, nuclear extracts preincubated 30 min at room temperature, means of three experiments

SMILES | IC50 [1] | IC50 [2]
CC(C)C[C@H](NC(=O)[C@H](Cc1ccc(OP(=O)(O)O)cc1)NC(=O)c1ccc(C#N)cc1)C(=O)NCc1ccncc1 | 90 µM | 405 µM
CC(C)C[C@H](NC(=O)[C@H](Cc1ccc(OP(=O)(O)O)cc1)NC(=O)c1ccc(C#N)cc1)C(=O)NCc1ccccc1 | 800 µM | –
